The test addresses Histone deacetylase (Homo sapiens) (UniProt Q13547+O15379+Q9UBN7+Q92769+Q9UQL6+Q8WUI4+Q9BY41+Q96DB2+P56524+Q9UKV0+Q969S8). The conditions noted are these: HeLa, at 1 µM.

Chains of the proteins cited; added tags and fusions are not shown. Lines headed by an entry give the natural chain unless they say otherwise; changes in a name come on top.
UniProt Q13547: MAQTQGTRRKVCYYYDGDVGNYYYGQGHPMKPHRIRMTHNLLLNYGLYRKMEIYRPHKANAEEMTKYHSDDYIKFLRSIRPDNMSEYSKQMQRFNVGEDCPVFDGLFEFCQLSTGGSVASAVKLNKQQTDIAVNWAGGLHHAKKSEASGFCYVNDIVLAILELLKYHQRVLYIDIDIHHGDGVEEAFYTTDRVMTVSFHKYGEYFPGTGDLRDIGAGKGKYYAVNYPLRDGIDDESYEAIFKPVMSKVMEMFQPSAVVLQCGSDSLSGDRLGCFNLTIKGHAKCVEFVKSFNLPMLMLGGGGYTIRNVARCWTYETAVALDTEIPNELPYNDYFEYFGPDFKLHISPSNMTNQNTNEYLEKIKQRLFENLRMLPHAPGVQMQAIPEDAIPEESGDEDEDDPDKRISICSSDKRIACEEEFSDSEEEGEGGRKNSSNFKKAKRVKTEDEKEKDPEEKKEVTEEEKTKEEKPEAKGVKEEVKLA
UniProt O15379: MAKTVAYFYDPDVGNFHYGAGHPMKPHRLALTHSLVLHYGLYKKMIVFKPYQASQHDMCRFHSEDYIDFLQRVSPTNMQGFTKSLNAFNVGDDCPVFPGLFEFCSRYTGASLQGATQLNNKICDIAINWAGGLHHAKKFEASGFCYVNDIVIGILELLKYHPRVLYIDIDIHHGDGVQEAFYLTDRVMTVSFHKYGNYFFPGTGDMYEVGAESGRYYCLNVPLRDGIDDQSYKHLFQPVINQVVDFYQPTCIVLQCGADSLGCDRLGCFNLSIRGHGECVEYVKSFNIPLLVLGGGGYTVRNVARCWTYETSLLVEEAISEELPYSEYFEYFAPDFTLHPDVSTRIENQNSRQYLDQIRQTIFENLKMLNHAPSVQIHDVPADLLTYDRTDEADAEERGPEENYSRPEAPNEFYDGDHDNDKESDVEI
UniProt Q9UBN7: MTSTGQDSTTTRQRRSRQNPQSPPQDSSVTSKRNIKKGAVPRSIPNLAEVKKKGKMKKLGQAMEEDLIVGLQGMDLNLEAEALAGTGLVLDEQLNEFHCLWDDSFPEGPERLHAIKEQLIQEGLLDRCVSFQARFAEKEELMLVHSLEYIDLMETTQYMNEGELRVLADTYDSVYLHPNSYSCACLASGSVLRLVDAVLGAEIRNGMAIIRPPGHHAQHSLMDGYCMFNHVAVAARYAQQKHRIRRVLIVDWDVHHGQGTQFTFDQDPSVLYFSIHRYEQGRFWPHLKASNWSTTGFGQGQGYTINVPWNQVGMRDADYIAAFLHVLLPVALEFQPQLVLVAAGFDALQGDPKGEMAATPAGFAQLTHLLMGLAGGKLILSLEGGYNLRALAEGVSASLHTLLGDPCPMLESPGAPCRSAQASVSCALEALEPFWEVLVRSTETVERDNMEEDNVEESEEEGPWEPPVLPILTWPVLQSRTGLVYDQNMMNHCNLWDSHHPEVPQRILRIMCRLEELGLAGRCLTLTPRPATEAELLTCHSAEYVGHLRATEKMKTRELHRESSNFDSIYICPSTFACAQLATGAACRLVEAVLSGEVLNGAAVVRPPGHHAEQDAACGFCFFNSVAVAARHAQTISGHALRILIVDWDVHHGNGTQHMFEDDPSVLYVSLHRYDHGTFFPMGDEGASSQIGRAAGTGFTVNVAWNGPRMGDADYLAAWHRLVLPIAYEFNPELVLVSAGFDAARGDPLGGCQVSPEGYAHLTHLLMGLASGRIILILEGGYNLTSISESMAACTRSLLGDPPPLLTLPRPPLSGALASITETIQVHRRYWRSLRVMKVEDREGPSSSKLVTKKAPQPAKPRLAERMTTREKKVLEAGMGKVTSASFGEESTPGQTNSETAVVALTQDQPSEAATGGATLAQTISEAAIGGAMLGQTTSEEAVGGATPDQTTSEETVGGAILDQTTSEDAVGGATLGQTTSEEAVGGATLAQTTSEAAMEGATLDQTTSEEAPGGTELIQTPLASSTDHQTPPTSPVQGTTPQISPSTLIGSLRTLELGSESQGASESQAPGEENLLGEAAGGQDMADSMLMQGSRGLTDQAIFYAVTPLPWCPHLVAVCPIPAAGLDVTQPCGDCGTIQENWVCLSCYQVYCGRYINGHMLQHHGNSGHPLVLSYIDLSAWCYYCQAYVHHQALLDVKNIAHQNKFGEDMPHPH
UniProt Q8WUI4: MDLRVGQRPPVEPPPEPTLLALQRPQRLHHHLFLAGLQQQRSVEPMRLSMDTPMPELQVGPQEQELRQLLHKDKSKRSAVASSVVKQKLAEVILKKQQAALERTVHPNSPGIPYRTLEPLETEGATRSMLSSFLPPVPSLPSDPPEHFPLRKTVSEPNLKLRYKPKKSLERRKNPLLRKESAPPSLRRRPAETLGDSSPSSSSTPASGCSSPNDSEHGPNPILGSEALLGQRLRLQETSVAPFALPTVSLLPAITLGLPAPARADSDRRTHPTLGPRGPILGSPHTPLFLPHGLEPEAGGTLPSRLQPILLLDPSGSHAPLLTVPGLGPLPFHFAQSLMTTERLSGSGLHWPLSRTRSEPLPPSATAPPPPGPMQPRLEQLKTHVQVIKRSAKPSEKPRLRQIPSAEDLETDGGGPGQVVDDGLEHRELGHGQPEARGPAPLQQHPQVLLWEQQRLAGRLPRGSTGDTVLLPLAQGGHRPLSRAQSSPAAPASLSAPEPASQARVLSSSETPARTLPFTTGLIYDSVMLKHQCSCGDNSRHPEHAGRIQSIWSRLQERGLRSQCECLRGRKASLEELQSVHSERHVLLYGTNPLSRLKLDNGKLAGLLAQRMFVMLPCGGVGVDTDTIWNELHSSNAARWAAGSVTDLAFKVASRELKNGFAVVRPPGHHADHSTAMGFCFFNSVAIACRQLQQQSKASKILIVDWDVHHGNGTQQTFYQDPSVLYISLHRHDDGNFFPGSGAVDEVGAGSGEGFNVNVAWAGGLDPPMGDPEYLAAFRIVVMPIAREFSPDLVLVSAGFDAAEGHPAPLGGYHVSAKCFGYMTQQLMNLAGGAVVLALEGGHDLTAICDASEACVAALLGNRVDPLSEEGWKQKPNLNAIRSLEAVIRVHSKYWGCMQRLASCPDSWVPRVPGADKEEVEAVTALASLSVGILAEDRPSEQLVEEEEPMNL
UniProt Q9BY41: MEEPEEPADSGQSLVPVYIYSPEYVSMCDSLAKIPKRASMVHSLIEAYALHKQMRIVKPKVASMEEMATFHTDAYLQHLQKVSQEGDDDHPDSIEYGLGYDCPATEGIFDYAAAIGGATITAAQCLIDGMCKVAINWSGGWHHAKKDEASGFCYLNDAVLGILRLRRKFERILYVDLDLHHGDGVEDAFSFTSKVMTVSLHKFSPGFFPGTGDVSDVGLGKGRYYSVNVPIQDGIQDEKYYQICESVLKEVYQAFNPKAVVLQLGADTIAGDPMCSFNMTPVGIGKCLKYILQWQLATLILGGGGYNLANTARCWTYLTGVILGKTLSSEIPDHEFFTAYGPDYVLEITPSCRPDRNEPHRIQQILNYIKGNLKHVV
UniProt Q96DB2: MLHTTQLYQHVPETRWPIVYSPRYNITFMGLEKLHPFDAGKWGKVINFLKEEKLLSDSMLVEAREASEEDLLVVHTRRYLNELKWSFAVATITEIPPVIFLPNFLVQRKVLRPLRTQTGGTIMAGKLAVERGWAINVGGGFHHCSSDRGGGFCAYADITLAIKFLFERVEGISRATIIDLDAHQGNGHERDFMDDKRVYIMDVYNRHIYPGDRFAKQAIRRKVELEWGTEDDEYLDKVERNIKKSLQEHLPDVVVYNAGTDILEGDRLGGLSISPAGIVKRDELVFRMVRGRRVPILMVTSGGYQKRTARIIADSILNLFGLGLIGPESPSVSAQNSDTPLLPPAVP
UniProt P56524: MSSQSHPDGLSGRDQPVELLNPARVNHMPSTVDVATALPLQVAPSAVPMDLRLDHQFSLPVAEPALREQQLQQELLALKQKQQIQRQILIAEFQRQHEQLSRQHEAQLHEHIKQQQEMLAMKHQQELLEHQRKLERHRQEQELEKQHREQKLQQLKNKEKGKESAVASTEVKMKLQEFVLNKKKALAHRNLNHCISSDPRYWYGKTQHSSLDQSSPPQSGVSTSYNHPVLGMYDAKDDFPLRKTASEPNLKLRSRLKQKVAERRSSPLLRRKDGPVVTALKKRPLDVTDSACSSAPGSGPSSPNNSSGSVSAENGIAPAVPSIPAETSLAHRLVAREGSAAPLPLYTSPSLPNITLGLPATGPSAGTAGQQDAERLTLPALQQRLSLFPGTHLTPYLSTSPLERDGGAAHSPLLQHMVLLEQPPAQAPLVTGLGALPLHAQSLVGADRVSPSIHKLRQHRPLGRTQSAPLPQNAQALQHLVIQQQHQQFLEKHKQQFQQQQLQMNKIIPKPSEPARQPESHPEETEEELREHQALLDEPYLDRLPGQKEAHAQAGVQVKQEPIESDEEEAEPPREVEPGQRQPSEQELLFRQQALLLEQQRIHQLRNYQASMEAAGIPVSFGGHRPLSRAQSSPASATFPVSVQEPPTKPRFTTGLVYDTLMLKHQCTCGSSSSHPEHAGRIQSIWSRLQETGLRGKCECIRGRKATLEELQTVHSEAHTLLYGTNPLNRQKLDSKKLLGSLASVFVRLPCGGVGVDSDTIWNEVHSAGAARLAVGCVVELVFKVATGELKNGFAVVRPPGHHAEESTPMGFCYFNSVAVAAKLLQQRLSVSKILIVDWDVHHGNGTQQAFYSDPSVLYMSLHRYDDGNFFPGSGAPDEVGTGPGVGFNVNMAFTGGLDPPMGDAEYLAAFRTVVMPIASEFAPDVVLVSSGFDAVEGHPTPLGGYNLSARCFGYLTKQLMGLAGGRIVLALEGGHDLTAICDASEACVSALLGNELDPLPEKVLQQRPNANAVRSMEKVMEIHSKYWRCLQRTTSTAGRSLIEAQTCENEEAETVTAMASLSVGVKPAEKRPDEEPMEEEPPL
UniProt Q9UKV0: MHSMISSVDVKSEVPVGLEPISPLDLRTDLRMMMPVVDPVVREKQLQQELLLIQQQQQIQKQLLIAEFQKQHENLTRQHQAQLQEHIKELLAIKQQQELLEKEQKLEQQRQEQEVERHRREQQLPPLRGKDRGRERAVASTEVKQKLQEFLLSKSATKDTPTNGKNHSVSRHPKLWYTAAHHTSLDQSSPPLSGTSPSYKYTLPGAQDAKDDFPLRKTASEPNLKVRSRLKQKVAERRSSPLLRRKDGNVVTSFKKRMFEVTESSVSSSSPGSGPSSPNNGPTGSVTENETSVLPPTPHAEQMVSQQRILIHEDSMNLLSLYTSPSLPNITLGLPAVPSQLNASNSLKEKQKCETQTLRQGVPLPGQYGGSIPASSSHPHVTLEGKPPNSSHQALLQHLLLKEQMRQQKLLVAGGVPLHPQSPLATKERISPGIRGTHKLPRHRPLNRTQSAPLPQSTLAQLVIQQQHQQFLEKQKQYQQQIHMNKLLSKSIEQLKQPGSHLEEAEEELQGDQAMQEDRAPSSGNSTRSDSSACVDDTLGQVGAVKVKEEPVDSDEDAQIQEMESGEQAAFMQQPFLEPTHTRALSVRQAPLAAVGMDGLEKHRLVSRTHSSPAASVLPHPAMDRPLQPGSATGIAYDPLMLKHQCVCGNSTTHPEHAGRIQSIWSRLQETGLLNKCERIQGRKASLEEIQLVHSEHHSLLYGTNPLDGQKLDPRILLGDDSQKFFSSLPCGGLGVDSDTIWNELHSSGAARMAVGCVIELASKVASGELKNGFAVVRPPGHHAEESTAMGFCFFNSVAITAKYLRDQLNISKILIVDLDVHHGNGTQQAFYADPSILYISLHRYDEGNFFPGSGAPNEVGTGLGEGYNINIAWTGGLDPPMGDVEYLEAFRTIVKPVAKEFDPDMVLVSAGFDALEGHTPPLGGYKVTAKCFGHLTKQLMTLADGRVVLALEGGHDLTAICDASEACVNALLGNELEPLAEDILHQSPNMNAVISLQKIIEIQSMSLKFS
UniProt Q969S8: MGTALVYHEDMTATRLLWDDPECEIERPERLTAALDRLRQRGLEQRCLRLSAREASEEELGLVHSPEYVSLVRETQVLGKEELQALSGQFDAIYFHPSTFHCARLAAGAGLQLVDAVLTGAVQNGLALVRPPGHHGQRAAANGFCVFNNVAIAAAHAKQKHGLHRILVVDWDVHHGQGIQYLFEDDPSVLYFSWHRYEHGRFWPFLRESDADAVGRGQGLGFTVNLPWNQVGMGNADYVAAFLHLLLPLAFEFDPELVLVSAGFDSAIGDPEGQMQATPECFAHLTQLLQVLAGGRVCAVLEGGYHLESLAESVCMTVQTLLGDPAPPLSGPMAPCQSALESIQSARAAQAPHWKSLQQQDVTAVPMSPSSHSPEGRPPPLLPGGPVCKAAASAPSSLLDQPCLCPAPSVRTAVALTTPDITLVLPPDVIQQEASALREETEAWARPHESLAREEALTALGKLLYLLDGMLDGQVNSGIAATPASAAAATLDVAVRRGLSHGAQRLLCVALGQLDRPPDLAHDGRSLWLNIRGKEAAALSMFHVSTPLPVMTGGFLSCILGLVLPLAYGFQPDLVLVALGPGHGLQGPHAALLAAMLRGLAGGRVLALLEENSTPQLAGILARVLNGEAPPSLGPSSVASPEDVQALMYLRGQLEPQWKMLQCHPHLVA

This passage reports inhibition results from ChEMBL document CHEMBL1144711, “Polyaminohydroxamic acids and polyaminobenzamides as isoform selective histone deacetylase inhibitors” (J Med Chem, 2008).

The structures appear in SMILES notation.

By inhibition is commonly meant how much of the control response was suppressed. Read a high inhibition as a strong effect. `CC(C)(C)c1ccc(CNCCCCNCCCNC(=O)CCCCCC(=O)NO)cc1` registered an inhibition of 51.5%.
